# Species on record: Homo sapiens
# Assay: Selectivity ratio of IC50 for human His-tagged human CDK2 (M1 to L298 residue)/cyclin E1 (M1 to A395 residue) expressed in sf9 insect cells to IC50 for His-tagged human CDK9/cyclin T1 expressed in insect cells
compound,measurement,value
CS(=N)(=N)Cc1cc2cc(c1)OCCCCOc1cc(F)ccc1-c1nc(ncc1F)N2,Ratio IC50,500
